Source: patent US5624818, “Nucleic acids encoding regulatory proteins that dimerize with Mad or Max” (Fred Hutchinson Cancer Research Center, dated 1993)

Target: c-Myc ProZip (human, UniProt P01106-1)
Assay: in vitro translated 35S-protein on GST-MaxC124 glutathione-Sepharose, SDS-PAGE; paragraph 128 calls these mutants ones that fail to bind to truncated Max

B1: GST-MaxC124 (other)
chain: DHIKDSFHSLRDSVPSLQGEKASRAQILDKATEYIQYMRRKNHTHQQDIDDLKRQNALLEQQVRALEKARSSAQLQTNYPSSDNSLYTNAKGSTISAFDGGSDSSSESEPEEPQSRKKLRMEAS
B1: no binding.
